Binding of CDR-mutated scFvs to a peptide of the spike HR2 region

Values reported by Engelhart et al. 2022, doi:10.1038/s41597-022-01779-4 (FLAb copy).

All variants were tested on one target, the spike HR2 peptide PDVDLGDISGINAS (SARS-CoV-2).

Ab-14 is the parent antibody, in scFv form: VH, then the linker GGGGSGGGGSGGGGS, then VL. The light chain is unchanged in all variants.
VH: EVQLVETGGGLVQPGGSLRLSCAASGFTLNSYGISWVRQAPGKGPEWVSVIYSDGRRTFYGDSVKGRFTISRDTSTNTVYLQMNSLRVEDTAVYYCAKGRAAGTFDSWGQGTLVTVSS
VL: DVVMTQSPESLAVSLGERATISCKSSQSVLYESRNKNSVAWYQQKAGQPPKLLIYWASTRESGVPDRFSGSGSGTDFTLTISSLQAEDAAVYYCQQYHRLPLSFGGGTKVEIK

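Library AAYL49 holds single substitutions and randomly drawn double and triple substitutions in the CDRs. In AlphaSeq, yeast of one mating type display the scFv and yeast of the other type display the target. Binding brings cells together so that they mate, and sequencing counts the barcode pairs among the diploids. Each replicate has its own calibration line, from reference interactions of the BCL2 family. Each pool was mated in three replicate cultures.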

The parent's heavy chain CDRs are GFTLNSYGIS, VIYSDGRRTFYGDSVK, GRAAGTFDS; each variant's own CDRs replace them letter for letter.
Every variant below is changed at G55 of the VH (sequential numbering).
Each Kd is an estimate from the mating assay, the geometric mean of the replicates in which the pair was seen; lower is stronger.
A pair that was not seen in any replicate is written "nd"; this usually means weak binding, but a binder can also be missed.
Background: pairings of library AAYL49 with three empty control strains gave a value in 15% of cases (median 11 µM, 5th percentile 680 nM). Values in that range, when seen in few replicates, are hard to tell from nonspecific mating.

For GFLLNSYGIS | VIYSDERRTFYGDSVK | GRAAGLFDS, the assay gave nd (0 of 3 replicates). Variant GFTLNSYGIS | AIYSDERRTFYGDSVK | GRAAGTFDS showed nd (0 of 3 replicates). Variant GFTLNSYGPS | VIYSDTRRTFYGDSVK | GRRAGTFDS showed 2.6 µM (1 of 3 replicates). Variant GFTLNSYHIS | VIYSDRRRIFYGDSVK | GRAAGTFDS gave nd (0 of 3 replicates). With GFTLNSYGIS | VIYSDIRRTFYGDSVK | WWAAGTFDS the result was nd (0 of 3 replicates).

Variant GFTLNSYGIS | YIYSDCRRTFYGDSVK | GRAAGTFDS gave nd (0 of 3 replicates). For GFTLNSYGIS | VIYSDARRTFYQDYVK | GRAAGTFDS, the assay gave 2.0 µM (2 of 3 replicates). Variant GGTLNSYGIS | VIYSDTRRTFYGDSVK | GRMAGTFDS gave nd (0 of 3 replicates). With GFTLNEYLIS | VIYSDRRRTFYGDSVK | GRAAGTFDS the result was 9.5 µM (1 of 3 replicates). With TFTLNSYYIS | VIYSDIRRTFYGDSVK | GRAAGTFDS the result was 18 µM (2 of 3 replicates).

Variant GFELNSYGIS | VIYSDQRRTFYGDSVK | GSAAGTFDS showed 15 µM (2 of 3 replicates). For GFTLNSYGIG | VIYSDLRRTFYGDSVK | GRVAGTFDS, the assay gave 5.3 µM (1 of 3 replicates). With GFWLNSYGIS | VIYSDERRCFYGDSVK | GRAAGTFDS the result was nd (0 of 3 replicates). Variant GFTLCSYGIS | VIYSDNRRTFYGDSVK | GRAAGTTDS gave nd (0 of 3 replicates). For GFTLNRYGIS | VIYSDVRRTFYGKSVK | GRAAGTFDS, the assay gave nd (0 of 3 replicates).

For GFTLNSYGIS | VVYSDERRTFYGDSVK | GRAYGTFDS, the assay gave nd (0 of 3 replicates). For GFTLNSYGIS | VIYLDMRRTFYGDSVK | GRAAGTFDS, the assay gave 110 µM (1 of 3 replicates). Variant GFTLNSYGCS | VIYSDNRRTFYGDSVK | GRAATTFDS showed 320 µM (1 of 3 replicates). For GFTLNSYGIS | VIYSDVFRTFYGDSVK | YRAAGTFDS, the assay gave nd (0 of 3 replicates). Variant GFTLCSYGES | VIYSDYRRTFYGDSVK | GRAAGTFDS showed nd (0 of 3 replicates).

Variant GTTLNSYGIS | VIYSDYRRTFYGDSVK | GRAAGTFDS gave 1.4 µM (1 of 3 replicates). With GFTLNSYGIS | VIYSVERRTFYGDSVK | MRAAGTFDS the result was 14 µM (1 of 3 replicates). With GFTLNSYGPS | VIYSDWERTFYGDSVK | GRAAGTFDS the result was 3.0 µM (1 of 3 replicates). Variant GFLLNSYGIS | VIYSDNRRTFYGDSVK | GRAAGTFDN gave nd (0 of 3 replicates). Variant GFGLNSYGIS | VIYSDSRRTFYGDSVK | GRAAGTIDS gave 880 nM (1 of 3 replicates).

With GFTLVSYGIS | VIYSDCRRTFLGDSVK | GRAAGTFDS the result was 11 µM (2 of 3 replicates). For GFTLNSYGIS | VIYSDYLRTFYGDSMK | GRAAGTFDS, the assay gave nd (0 of 3 replicates). Variant GKTLNSYGIS | VIYSDPRRTFYGDSVK | GEAAGTFDS gave 64 µM (1 of 3 replicates). With GLTLNSYGIS | VIYSDSRRTFYGDSLK | GRAAGTFDS the result was 300 µM (1 of 3 replicates). Variant RFTYNSYGIS | VIYSDSRRTFYGDSVK | GRAAGTFDS gave nd (0 of 3 replicates).

3 of these entries, quoted again:

For GFTLNSYGIS | AIYSDERRTFYGDSVK | GRAAGTFDS, the assay gave nd (0 of 3 replicates).
For RFTYNSYGIS | VIYSDSRRTFYGDSVK | GRAAGTFDS, the assay gave nd (0 of 3 replicates).
For GFTLNSYGIS | VIYSDIRRTFYGDSVK | WWAAGTFDS, the assay gave nd (0 of 3 replicates).

For reference, the parent read 4.4 nM as the reference entry and 13 µM (one replicate of three) as a member of this library.